Test: Human coagulation factor X in blood plasma (ELISA) after SC injection or oral capsule
Assay type: in vivo, Sprague Dawley rats
Procedure: Four male Sprague Dawley rats were used as controls. Each rat was anaesthetised with isoflurane followed by preparation of the saphenous vein. The rats were given 0.5 mg/kg of human coagulation factor X via SC injection, immediately following this they were placed on a heat-mat until they regained consciousness, before being housed in pairs in boxes. Blood collection (150 μl) was taken via the saphenous vein at 0, 30-, 70-, 120-,180-, 240- and 360-mins post-injection. The blood concentration of the protein in the blood was tested using the relevant ELISA kit for human coagulation factor X.
Eight male Sprague Dawley rats were used. Each rat was anaesthetised with isoflurane followed by preparation of the saphenous vein and the first blood collection (150 μl). An enteric capsule with a thick polymer coating of approximately 160 μm containing 0.5 mg/kg of the human coagulation factor X encapsulated in MO lipid cubic phase was then introduced via oral gavage into the rat stomach. Immediately following this they were placed on a heat-mat until they regained consciousness, before being housed in pairs. Blood collection (150 μl) was taken via the saphenous vein at 0, 35-, 50-, 120-,180-, 240- and 360-mins post-injection
All data are analysed on a Clariostar Plate Reader to determine concentration against a standard curve for the relevant drug.
Concentrations provided in FIGS. 10-13 are the measured concentration of the drug in the blood plasma (determined using specific Elisa kits) and are in units of ng/ml. The initial drug concentration measured at the 0 time point has been set to zero in each case and other data scaled relative to this.

[1] = oral enteric capsule vs SC, 0.5 mg/kg
[2] = oral enteric capsule, MO cubic phase, 0.5 mg/kg

Which “time of maximum plasma concentration” value (SC injection 0.5 mg/kg) does the source give for “human coagulation factor X: Human Coagulation Factor 10 (Resolving Images), given SC or in MO cubic phase within enteric capsule” here?
Its value is 30 min.

And the “maximum drug concentration in blood plasma” value (SC injection 0.5 mg/kg, range over four rats)?
The value was 9 to 10 ng/mL.

And the “plasma concentration after sharp decrease from maximum” value (SC injection 0.5 mg/kg, over the subsequent 90 min after the peak)?
Its value is 1 ng/mL.

What about the “maximum drug concentration in blood plasma” value (oral enteric capsule (approx. 160 μm coating), MO cubic phase, 0.5 mg/kg, range over rats) of the same substance?
The value was 3.7 to 5.2 ng/mL.

And the “maximum drug plasma concentration as % of that following SC injection” value [1]?
The value was 47%.

What about the “overall bioavailability as % of that following SC injection” value [1] of the same substance?
The value was 88.52%.

And the “time by which baseline drug concentrations are reached” value [2]?
Its value is no more than 300 min.

And the “time of maximum plasma concentration” value [2]?
The value was 50 min.

— US20240009137A1, “ORAL THERAPEUTIC DELIVERY” (ROYAL MELBOURNE INSTITUTE OF TECHNOLOGY, priority 2020, published 2024)
